# Literature values, collected in patent US6646013B1, “Nutrient formulations for disease reduction” (Nutri-Logics, priority 1999, dated 2003).
structure (smiles),measurement,setting,value
[Se] [selenium],human maximum tolerated dose (MTD) of dietary selenium,estimated,819 μg selenium/day
same,range of safety between physiological and toxic levels,humans,10 fold
same,MTD as multiple of the RDA,in vivo,15 times the RDA
